Test results published in ChEMBL document CHEMBL1153227, “2,3,5-Trisubstituted pyridines as selective AKT inhibitors. Part II: Improved drug-like properties and kinase selectivity from azaindazoles” (Bioorg Med Chem Lett, 2010).

Protein sequences, listed by entry. Tags and fused reporters are not part of them.
UniProt P11712, whole entry: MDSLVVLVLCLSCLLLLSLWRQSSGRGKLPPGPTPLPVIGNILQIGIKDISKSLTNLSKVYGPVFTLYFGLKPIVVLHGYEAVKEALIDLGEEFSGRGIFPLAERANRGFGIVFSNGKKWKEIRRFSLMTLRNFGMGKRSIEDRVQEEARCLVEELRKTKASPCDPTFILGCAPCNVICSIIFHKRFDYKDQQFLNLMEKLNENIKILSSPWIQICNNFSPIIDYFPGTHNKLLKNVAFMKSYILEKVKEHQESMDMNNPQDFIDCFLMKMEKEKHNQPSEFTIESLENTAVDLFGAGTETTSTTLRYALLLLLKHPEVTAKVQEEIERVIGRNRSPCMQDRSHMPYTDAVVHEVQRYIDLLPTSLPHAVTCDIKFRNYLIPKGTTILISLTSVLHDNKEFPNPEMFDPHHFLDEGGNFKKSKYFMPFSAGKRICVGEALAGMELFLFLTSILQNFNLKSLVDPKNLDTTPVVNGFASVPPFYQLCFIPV

Target: Cytochrome P450 2C9 (Homo sapiens, UniProt P11712)

Work on Cc1n[nH]c2ccc(-c3cc(OC[C@@H](N)Cc4c[nH]c5ccccc45)cnc3-c3ccoc3)cc12 yielded an IC50 of 500 nM.
